## scFv variants of Ab-14 (heavy chain) against a SARS-CoV-2 spike peptide

Target: peptide PDVDLGDISGINAS, taken from heptad repeat 2 (HR2) of SARS-CoV-2 spike.

Ab-14 is the parent antibody, in scFv form: VH, then a (GGGGS)3 linker, then VL. The light chain is unchanged in all variants.
VH: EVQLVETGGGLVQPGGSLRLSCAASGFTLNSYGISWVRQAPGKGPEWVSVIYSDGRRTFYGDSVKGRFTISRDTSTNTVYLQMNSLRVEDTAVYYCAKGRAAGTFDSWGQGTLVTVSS
VL: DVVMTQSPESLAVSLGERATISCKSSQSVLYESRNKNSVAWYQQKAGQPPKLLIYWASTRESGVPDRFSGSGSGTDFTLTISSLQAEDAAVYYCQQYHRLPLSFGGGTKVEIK

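Phage display of a naive human antibody library on the peptide gave the parent. In library AAYL49, one, two or three CDR residues were substituted; doubles and triples were drawn at random. The scFvs were displayed on barcoded MATa yeast, the peptide on MATalpha yeast. The frequency of each diploid, read from paired DNA barcodes, reflects how well the two displayed proteins bind. A regression on co-assayed BCL2-family reference pairs converts the normalised counts of each replicate to an apparent Kd. Mating was done three times.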

Each variant is given by its three heavy chain CDRs, as the data file delimits them; those of the parent are GFTLNSYGIS, VIYSDGRRTFYGDSVK, GRAAGTFDS. The read-out is the apparent dissociation constant on a log10 scale (nM): the lower, the stronger. Averages over replicates are reported, and they cover detected replicates only. "nd" marks a missing value. The strain was present, yet no cells mated with the target were sequenced in any replicate, which points to weak or no binding. The list is sorted by this average, lowest first, undetected variants last. Three control strains display no target. For library AAYL49, 15% of the pairings with them gave a signal, with a median of 4.06 and one signal in twenty below 2.83, so weak values seen in few replicates may be background. For each scFv, signals with the empty controls are counted beside the result.

CDR-H1,CDR-H2,CDR-H3,"log10 Kd (nM), mean",replicates with signal,control signals
GETLNSYGIS,VIYSDGRRYFYGDSVK,GRAAGTFVS,1.74,1 of 3,0 of 9
GFTLLSYGIS,VIYSDGQRTFYGDSVH,GRAAGTFDS,1.88,3 of 3,0 of 9
GNTLNSYGIS,VIYSDGRRTFYGDSVK,GRAAGFCDS,1.99,3 of 3,0 of 9
GFTLNSYGAS,VIYSDGRRTFYGDSVK,GKQAGTFDS,2.40,1 of 3,0 of 9
LYTINSYGIS,VIYSDGRRTFYGDSVK,GRAAGTFDS,2.48,2 of 3,1 of 9
GFTLNSYGNS,VIYSDGRRNFYGDSVE,GRAAGTFDS,2.63,1 of 3,1 of 9
GFTLNSMSIS,VITSDGRRTFYGDSVK,GRAAGTFDS,2.73,3 of 3,2 of 9
HFQLNSYGIS,VIYSDGRRTFYGHSVK,GRAAGTFDS,2.83,2 of 3,1 of 9
GFTLNSDGIS,VIYSDMRRTFYGDSVK,GRAAGWFDS,2.88,1 of 3,2 of 9
GATLWSYGIS,VIYSDGRRTFYGDSVK,GRAAGTFDS,2.99,3 of 3,3 of 9
GYTLNSYGIS,VSMSDGRRTFYGDSVK,GRAAGTFDS,3.19,1 of 3,0 of 9
GFTLNSYGIS,VIYSDGRRTFYHDFVK,GRAAGTIDS,3.31,1 of 3,1 of 9
GFTGNSYGIS,VIYSDGRRTFYGDSTK,GRAAGTFDA,3.33,1 of 3,6 of 9
GFVLNSYGIS,VIYYDGRRTIYGDSVK,GRAAGTFDS,3.47,3 of 3,2 of 9
GNTLNSYGYS,VIYSDGRRDFYGDSVK,GRAAGTFDS,3.49,1 of 3,4 of 9
GFTLQSYGAS,VIYSDGRRQFYGDSVK,GRAAGTFDS,3.75,1 of 3,0 of 9
GFTLNSYGCS,VIYSDGIRTFYGDSVK,GRAAPTFDS,3.93,2 of 3,1 of 9
GFTLNSYGIS,VIQSDGRRTFYGDSVK,GRECGTFDS,3.98,1 of 3,1 of 9
GSTLNSYGIS,VIYSDGRRTFYGKSVK,GRAAGTFES,4.29,3 of 3,2 of 9
GFTLNSRGIK,VIYSDGRRTFYGDSVK,GRAAGTFDP,4.35,2 of 3,2 of 9
GFTLNKYGIS,VIYSDGRRTFYGDSVK,GRAAGGFDP,4.41,2 of 3,4 of 9
NFWLNSYGIS,VIYSDGRRTFYGDSVK,GRAAGTFWS,4.59,1 of 3,0 of 9
GFTMNSYGIS,VDYSDGNRTFYGDSVK,GRAAGTFDS,4.88,1 of 3,2 of 9
GFTLNSYPIS,VIYSDGNYTFYGDSVK,GRAAGTFDS,5.32,1 of 3,1 of 9
GFTLNSYGPS,VIYSDGRRVFYGDSVK,GRAASTFDS,nd,0 of 3,0 of 9
GFTLNSYGIP,VIGSDGRRTFYGDSVT,GRAAGTFDS,nd,0 of 3,0 of 9
GFTLNSYGIS,VIYSDMARTFYGDSVK,GRAAGAFDS,nd,0 of 3,3 of 9
GFQLNSRGIS,VIYSDSRRTFYGDSVK,GRAAGTFDS,nd,0 of 3,0 of 9
GFTLNSYGIS,VIYSDGRRTFYGDSVK,GRRATCFDS,nd,0 of 3,2 of 9
GFTLNSYQIS,VIYTDGRRTFYGHSVK,GRAAGTFDS,nd,0 of 3,2 of 9
GFTLNSYGID,VIYSDGRRTFYGDSGK,HRAAGTFDS,nd,0 of 3,0 of 9
GFTLNSYGIS,VIYSDGRRTFYGDSHK,GRPAGYFDS,nd,0 of 3,0 of 9
GFTLNSYGFS,VIYSDGRRTFYGDSVK,GRAAGTFIS,nd,0 of 3,1 of 9
GFTLNSYGIS,VIYSDGRRTFRRDSVK,GRAANTFDS,nd,0 of 3,2 of 9
DFTLNSYGIS,WIYSDGRRTFYGDSVK,MRAAGTFDS,nd,0 of 3,0 of 9
GFFLNSYGIS,IWYSDGRRTFYGDSVK,GRAAGTFDS,nd,0 of 3,2 of 9
GFTLNSYGIS,VIYSWGRRGFYGDNVK,GRAAGTFDS,nd,0 of 3,1 of 9
GFTLNSQGIS,VIYSDGRRTFYGDEVK,GRAAGTFTS,nd,0 of 3,0 of 9
GFTLNSYGTS,VIYSDGRRTFYGDSVK,ARAAGTFDS,nd,0 of 3,2 of 9
GFTLVSYGIS,VRYPDGRRTFYGDSVK,GRAAGTFDS,nd,0 of 3,2 of 9
GFTLNSYGIS,VIYSTGRRTFYTISVK,GRAAGTFDS,nd,0 of 3,0 of 9
GFTLYSYGIS,VIYSDGRPTFHGDSVK,GRAAGTFDS,nd,0 of 3,0 of 9
GFTLNSYGIS,VIYSDGRRYFYGKSVK,GRDAGTFDS,nd,0 of 3,0 of 9
GFTLNSPGIS,VIYSLGRRTFYGDAVK,GRAAGTFDS,nd,0 of 3,1 of 9
GFTLNYYGIS,VIYSDGRRTFYGDSVK,LRAAGTFPS,nd,0 of 3,3 of 9
GFSLNSYGIS,VIYKDERRTFYGDSVK,GRAAGTFDS,nd,0 of 3,0 of 9

Picked from the list: the 4 lowest averages where every replicate gave a value.

CDR-H1,CDR-H2,CDR-H3,"log10 Kd (nM), mean",replicates with signal,control signals
GFTLLSYGIS,VIYSDGQRTFYGDSVH,GRAAGTFDS,1.88,3 of 3,0 of 9
GNTLNSYGIS,VIYSDGRRTFYGDSVK,GRAAGFCDS,1.99,3 of 3,0 of 9
GFTLNSMSIS,VITSDGRRTFYGDSVK,GRAAGTFDS,2.73,3 of 3,2 of 9
GATLWSYGIS,VIYSDGRRTFYGDSVK,GRAAGTFDS,2.99,3 of 3,3 of 9

Values reported by Engelhart et al. 2022, doi:10.1038/s41597-022-01779-4 (FLAb copy).